Among the data in publication PMC7936271, “Discovery and characterization of bromodomain 2–specific inhibitors of BRDT” (Proceedings of the National Academy of Sciences of the …, 2021) are IC50 values, retold here.

The target of this experiment is BRDT-BD1 (Homo sapiens, UniProt Q58F21). In words: AlphaScreen competition assay with biotinylated JQ1, BRDT-BD1. It is filed as binding. The settings on record: read-out: BRDT IC50, nM BD1, biotinylated JQ1 as ligand, NE: no effect at 20 µM. On the technique in general: Alpha assays give light when donor and acceptor beads are brought close together.

Take `CNC(=O)[C@@H](CC1CCN(C(=O)Cc2ccc3[nH]c(=O)cc(C)c3c2)CC1)NC(=O)c1ccc(-c2ccc(C)cc2C)cn1`: the IC50 is 2 nM.

Broadly, the IC50 is the concentration needed to halve the response being measured.
